{"source": "patent US20080064053A1", "about": "“Genotoxicity Testing” (priority 2003, published 2008)", "key": {"[1]": {"system": "RAD54 promoter-GFP reporter (pGen001)", "settings": "S9 −"}, "SOS umuC": {"system": "SOS umuC", "settings": "S9 −; cited from earlier work"}}, "data": [{"smiles": "CN(N=O)C(=N)N[N+](=O)[O-]", "values": [{"measurement": "GSA (M), lowest effective concentration (LEC)", "setting": "[1]", "value": "1.7e-06", "unit": "M"}, {"measurement": "SOS UMUC ASSAY (M), LEC", "setting": "SOS umuC", "value": "6e-06", "unit": "M"}]}]}
